ChEMBL document CHEMBL4376894 (J Med Chem, 2020)

The chains behind the UniProt entries cited, without tags or fusion partners. Where a name states a change or a piece, a line headed by the entry shows the natural chain unless it says otherwise.
UniProt P41145: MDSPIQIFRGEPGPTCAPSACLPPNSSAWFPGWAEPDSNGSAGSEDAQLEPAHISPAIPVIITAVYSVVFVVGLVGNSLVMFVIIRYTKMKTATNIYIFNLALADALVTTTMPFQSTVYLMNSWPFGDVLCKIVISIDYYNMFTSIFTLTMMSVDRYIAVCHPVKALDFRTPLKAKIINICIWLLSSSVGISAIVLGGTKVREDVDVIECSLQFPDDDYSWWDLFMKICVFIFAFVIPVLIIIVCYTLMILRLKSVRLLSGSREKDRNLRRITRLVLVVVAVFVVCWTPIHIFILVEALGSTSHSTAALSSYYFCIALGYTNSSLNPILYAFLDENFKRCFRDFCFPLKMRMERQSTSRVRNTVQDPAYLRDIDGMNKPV
UniProt P35372, whole entry: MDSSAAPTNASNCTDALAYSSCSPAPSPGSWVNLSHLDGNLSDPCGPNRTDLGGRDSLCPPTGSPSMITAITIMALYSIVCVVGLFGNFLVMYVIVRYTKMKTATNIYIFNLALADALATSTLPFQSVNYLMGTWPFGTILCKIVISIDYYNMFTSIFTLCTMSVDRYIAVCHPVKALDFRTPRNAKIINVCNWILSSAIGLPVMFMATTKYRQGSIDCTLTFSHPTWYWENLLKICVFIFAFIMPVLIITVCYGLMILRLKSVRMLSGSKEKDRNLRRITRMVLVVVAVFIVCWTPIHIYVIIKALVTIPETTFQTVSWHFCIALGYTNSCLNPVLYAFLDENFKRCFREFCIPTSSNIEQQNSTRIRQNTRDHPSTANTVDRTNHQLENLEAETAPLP

How the values were obtained:
[1] = biological target: Kappa-type opioid receptor (Homo sapiens, UniProt P41145); assay: biochemical; type: functional, cell-based, CHO
Mu-type opioid receptor = Mu-type opioid receptor (Homo sapiens, UniProt P35372); assay: biochemical; type: functional, cell-based, CHO

Structure (SMILES) | EC50 ([1]; read-out: EC50) | EC50 (Mu-type opioid receptor; read-out: EC50) | EC50 ([1]; cho) | EC50 (Mu-type opioid receptor; cho)
CCOc1ccc(CN2CCCC2)cc1CNC(=O)[C@@H](N)Cc1c(C)cc(O)cc1C.O=C(O)C(F)(F)F | > 6000 nM | 168 nM |  | 
CCOc1ccc(CN2CCc3ccccc3C2)cc1CNC(=O)[C@@H](N)Cc1c(C)cc(O)cc1C.O=C(O)C(F)(F)F |  | 1.9 nM | Not Active | 
CCOc1ccc(CN2CCOCC2)cc1CNC(=O)[C@@H](N)Cc1c(C)cc(O)cc1C.O=C(O)C(F)(F)F |  | 1020 nM | Not Active | 
CCOc1ccc(CN2Cc3ccccc3C2)cc1CNC(=O)[C@@H](N)Cc1c(C)cc(O)cc1C.O=C(O)C(F)(F)F |  | 8.4 nM | Not Active | 
CCOc1ccc(CN2CC3CC3C2)cc1CNC(=O)[C@@H](N)Cc1c(C)cc(O)cc1C (stereo not given in full) | > 10000 nM | 990 nM |  | 
CCOc1ccc(CN(C)Cc2ccccc2)cc1CNC(=O)[C@@H](N)Cc1c(C)cc(O)cc1C.O=C(O)C(F)(F)F |  | 33.9 nM | Not Active | 
CCOc1ccc(CN2CCCCC2)cc1CNC(=O)[C@@H](N)Cc1c(C)cc(O)cc1C.O=C(O)C(F)(F)F |  | 585 nM | Not Active | 
CCOc1ccc(C(=O)N2CCCC2)cc1CNC(=O)[C@@H](N)Cc1c(C)cc(O)cc1C.O=C(O)C(F)(F)F |  |  | Not Active | Not Active
CCOc1ccc(C(=O)N2Cc3ccccc3C2)cc1CNC(=O)[C@@H](N)Cc1c(C)cc(O)cc1C.O=C(O)C(F)(F)F |  | 15 nM | Not Active | 
CCOc1ccc(CNCc2ccccc2)cc1CNC(=O)[C@@H](N)Cc1c(C)cc(O)cc1C.O=C(O)C(F)(F)F | > 1000 nM | 16.7 nM |  | 
